This test relates to Ptc -/- MEFs. The test is described as follows: β-galactosidase activity in ptc-lacZ mouse embryonic fibroblasts. It is filed as cell-based.

For the compound `CC1=C2C[C@H]3[C@@H](CC=C4C[C@@H](O)CC[C@@]43C)[C@@H]2CC[C@]12O[C@@H]1C[C@H](C)CN[C@H]1[C@H]2C` [Cyclopamine, cyclopamine], the β-galactosidase activity result (MEFs homozygous for ptc-lacZ (cell line 23-1), 3 days, normalized to whole protein content) was “decreased”. Besides, the “reduction of β-galactosidase activity” value (exposure shorter than the average cell cycle, Ptc -/- MEFs 23-4, 16 hours (Figure 14)) is recorded as “can be obtained”.
